Source: ChEMBL document CHEMBL1142434, “Novel prostaglandin D synthase inhibitors generated by fragment-based drug design” (J Med Chem, 2008)

Chains of the proteins cited; added tags and fusions are not shown. Lines headed by an entry give the natural chain unless they say otherwise; changes in a name come on top.
UniProt O60760: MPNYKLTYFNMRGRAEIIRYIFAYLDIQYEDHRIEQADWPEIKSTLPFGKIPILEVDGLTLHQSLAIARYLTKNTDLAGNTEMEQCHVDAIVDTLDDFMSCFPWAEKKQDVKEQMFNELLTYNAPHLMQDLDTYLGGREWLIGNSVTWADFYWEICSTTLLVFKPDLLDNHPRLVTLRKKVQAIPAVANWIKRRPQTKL

Target: Hematopoietic prostaglandin D synthase (Homo sapiens, UniProt O60760)
Assay: Inhibition of glutathione-S-transferase activity of prostaglandin D2 synthase

O=C(O)c1cnn(-c2ccccc2)c1
IC50: 890 µM
